# Membrane permeability of cyclic peptides

PAMPA is the parallel artificial membrane permeability assay, which has no cells and reads passive diffusion. Values are log10 P with P in cm/s, so -5 is more permeable than -7.

{"smiles": "CC(=O)N1CCC[C@H]1C(=O)N[C@@H]1C(=O)N(C)[C@H](CC(C)C)C(=O)N[C@H](CC(C)C)C(=O)N(C)[C@H](CC(C)C)C(=O)N(C)[C@@H](CC(C)C)C(=O)N[C@@H](C)C(=O)N[C@@H](CC(C)C)C(=O)N2CCC[C@@H]2C(=O)O[C@@H]1C", "PAMPA (log10 cm/s)": "-5.53"}
{"smiles": "CC(=O)N1CCC[C@H]1C(=O)N[C@@H]1C(=O)N[C@H](CC(C)C)C(=O)N(C)[C@H](CC(C)C)C(=O)N[C@@H](CC(C)C)C(=O)N[C@H](CC(C)C)C(=O)N[C@@H](C)C(=O)N[C@@H](CC(C)C)C(=O)N2CCC[C@@H]2C(=O)O[C@@H]1C", "PAMPA (log10 cm/s)": "-5.21"}
{"smiles": "CC[C@H]1NC(=O)[C@@H](NC(=O)[C@@H](CC(C)C)N(C)C(=O)[C@@H]2CCCN2C(C)=O)[C@@H](C)OC(=O)[C@@H]2CCCN2C(=O)[C@H](CC(C)C)NC(=O)[C@@H](C)N(C)C(=O)[C@@H](Cc2cccc3ccccc23)NC(=O)[C@H](CC(C)C)NC1=O", "PAMPA (log10 cm/s)": "-5.64"}
{"smiles": "COc1ccc(C[C@@H]2NC(=O)[C@@H](Cc3ccccc3)NC(=O)[C@@H](NC(=O)[C@@H](CC(C)C)N(C)C(=O)[C@@H]3CCCN3C(C)=O)[C@@H](C)OC(=O)[C@@H]3CCCN3C(=O)[C@H](CC(C)C)NC(=O)[C@@H](C)N(C)C(=O)[C@@H](Cc3ccc(F)c(F)c3)NC2=O)cc1", "PAMPA (log10 cm/s)": "-5.92"}
{"smiles": "CC(=O)N[C@@H]1C(=O)N2CCC[C@H]2C(=O)N(C)[C@H](CC(C)C)C(=O)N(C)[C@@H](CC(C)C)C(=O)N(C)[C@@H](CC(C)C)C(=O)N(C)[C@H](CC(C)C)C(=O)N[C@@H](C)C(=O)N[C@@H](CC(C)C)C(=O)N2CCC[C@@H]2C(=O)O[C@@H]1C", "PAMPA (log10 cm/s)": "-5.06"}
{"smiles": "CC[C@H]1NC(=O)[C@@H](NC(=O)[C@@H](CC(C)C)N(C)C(=O)[C@@H]2CCCN2C(C)=O)[C@@H](C)OC(=O)[C@@H]2CCCN2C(=O)[C@H](CC(C)C)NC(=O)[C@@H](C)N(C)C(=O)[C@@H](CC2CCCCC2)NC(=O)[C@H](Cc2ccc(F)cc2)NC1=O", "PAMPA (log10 cm/s)": "-6.00"}
{"smiles": "CC(=O)N[C@@H]1C(=O)N2CCC[C@H]2C(=O)N(C)[C@H](CC(C)C)C(=O)N[C@@H](CC(C)C)C(=O)N[C@H](CC(C)C)C(=O)N(C)[C@@H](CC(C)C)C(=O)N[C@@H](C)C(=O)N[C@@H](CC(C)C)C(=O)N2CCC[C@@H]2C(=O)O[C@@H]1C", "PAMPA (log10 cm/s)": "-5.36"}
{"smiles": "CC(=O)N[C@@H]1C(=O)N2CCC[C@H]2C(=O)N(C)[C@H](CC(C)C)C(=O)N[C@H](CC(C)C)C(=O)N(C)[C@@H](CC(C)C)C(=O)N[C@@H](CC(C)C)C(=O)N[C@@H](C)C(=O)N[C@@H](CC(C)C)C(=O)N2CCC[C@@H]2C(=O)O[C@@H]1C", "PAMPA (log10 cm/s)": "-6.88"}
{"smiles": "CCC[C@H]1NC(=O)[C@@H](NC(=O)[C@@H](CC(C)C)N(C)C(=O)[C@@H]2CCCN2C(C)=O)[C@@H](C)OC(=O)[C@@H]2CCCN2C(=O)[C@H](CC(C)C)NC(=O)[C@@H](C)N(C)C(=O)[C@@H](Cc2ccccc2)NC(=O)[C@H](Cc2ccc(OC)cc2)NC1=O", "PAMPA (log10 cm/s)": "-5.76"}
{"smiles": "CC(=O)N1CCC[C@H]1C(=O)N[C@@H]1C(=O)N[C@H](CC(C)C)C(=O)N(C)[C@H](CC(C)C)C(=O)N(C)[C@H](CC(C)C)C(=O)N[C@H](CC(C)C)C(=O)N[C@H](C)C(=O)N[C@@H](CC(C)C)C(=O)N2CCC[C@@H]2C(=O)O[C@@H]1C", "PAMPA (log10 cm/s)": "-5.95"}
{"smiles": "CC(=O)N1CCC[C@H]1C(=O)N(C)[C@H](CC(C)C)C(=O)N[C@@H]1C(=O)N[C@H](CC2CCCCC2)C(=O)N[C@@H](CCc2ccccc2)C(=O)N[C@H](Cc2ccc(F)cc2)C(=O)N(C)[C@H](C)C(=O)N[C@@H](CC(C)C)C(=O)N2CCC[C@H]2C(=O)O[C@@H]1C", "PAMPA (log10 cm/s)": "-6.15"}
{"smiles": "CC(=O)N1CCC[C@H]1C(=O)N[C@@H]1C(=O)N(C)[C@H](CC(C)C)C(=O)N(C)[C@@H](CC(C)C)C(=O)N(C)[C@H](CC(C)C)C(=O)N(C)[C@@H](CC(C)C)C(=O)N[C@@H](C)C(=O)N[C@@H](CC(C)C)C(=O)N2CCC[C@@H]2C(=O)O[C@@H]1C", "PAMPA (log10 cm/s)": "-5.12"}
{"smiles": "CC(=O)N[C@@H]1C(=O)N2CCC[C@H]2C(=O)N(C)[C@H](CC(C)C)C(=O)N(C)[C@@H](CC(C)C)C(=O)N[C@@H](CC(C)C)C(=O)N[C@@H](CC(C)C)C(=O)N[C@@H](C)C(=O)N[C@@H](CC(C)C)C(=O)N2CCC[C@@H]2C(=O)O[C@@H]1C", "PAMPA (log10 cm/s)": "-6.36"}
{"smiles": "CC(=O)N1CCC[C@H]1C(=O)N[C@@H]1C(=O)N(C)[C@H](CC(C)C)C(=O)N[C@H](CC(C)C)C(=O)N(C)[C@@H](CC(C)C)C(=O)N(C)[C@H](CC(C)C)C(=O)N[C@H](C)C(=O)N[C@@H](CC(C)C)C(=O)N2CCC[C@@H]2C(=O)O[C@@H]1C", "PAMPA (log10 cm/s)": "-5.45"}
{"smiles": "CC(=O)N1CCC[C@H]1C(=O)N(C)[C@H](CC(C)C)C(=O)N[C@@H]1C(=O)N[C@H](CC(C)C)C(=O)N[C@@H](CCc2ccccc2)C(=O)N[C@H](Cc2ccc(F)cc2)C(=O)N(C)[C@H](C)C(=O)N[C@@H](CC(C)C)C(=O)N2CCC[C@H]2C(=O)O[C@@H]1C", "PAMPA (log10 cm/s)": "-5.30"}
{"smiles": "CCC[C@@H]1NC(=O)[C@@H](CCC)NC(=O)[C@@H](NC(=O)[C@@H](CC(C)C)N(C)C(=O)[C@@H]2CCCN2C(C)=O)[C@@H](C)OC(=O)[C@@H]2CCCN2C(=O)[C@H](CC(C)C)NC(=O)[C@@H](C)N(C)C(=O)[C@@H](CC2CCCCC2)NC1=O", "PAMPA (log10 cm/s)": "-5.40"}

The 2 highest values of PAMPA among the entries above:

| SMILES | PAMPA (log10 cm/s) |
|---|---|
| CC(=O)N[C@@H]1C(=O)N2CCC[C@H]2C(=O)N(C)[C@H](CC(C)C)C(=O)N(C)[C@@H](CC(C)C)C(=O)N(C)[C@@H](CC(C)C)C(=O)N(C)[C@H](CC(C)C)C(=O)N[C@@H](C)C(=O)N[C@@H](CC(C)C)C(=O)N2CCC[C@@H]2C(=O)O[C@@H]1C | -5.06 |
| CC(=O)N1CCC[C@H]1C(=O)N[C@@H]1C(=O)N(C)[C@H](CC(C)C)C(=O)N(C)[C@@H](CC(C)C)C(=O)N(C)[C@H](CC(C)C)C(=O)N(C)[C@@H](CC(C)C)C(=O)N[C@@H](C)C(=O)N[C@@H](CC(C)C)C(=O)N2CCC[C@@H]2C(=O)O[C@@H]1C | -5.12 |

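The data file gives no further conditions (lipid, pH, time, direction or concentration), and values from different papers need not be comparable. Other peptides of the study may be missing here. Peptides that the database sets to -10, its floor, are left out.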

Source: CycPeptMPDB (Li et al. 2023), which took these values from Kelly et al. 2021, doi:10.1021/jacs.0c06115.